The values that follow come from US10208083B2 (priority 2015, dated 2019).

Marks after values point to notes of the source that are not given here.

The subject of series [1] is murine P388 lymphocytic leukemia. Description: Antileukemic activity against P388 in vivo. Further: test concentration or dose not given here. The arrangement: species or system mice.
The subject of series [2] is SCOV-3 human ovarian cancer. As to the kind of experiment: Antitumor activity against SCOV-3 xenograft in vivo. On OS % on Day-70: test concentration or dose not given here. On PFS % on Day-70: test concentration or dose not given here. The following applies: BALB/c scid mice, s.c. SCOV-3, i.p. LD10/4 on days 1, 5, 9.
The subject of series [3] is C57Bl/6 mice. As to the kind of experiment: In vivo acute toxicity (lethality). The following applies: single i.p. injection, C57Bl/6 female mice, observed 30 days, estimated graphically.

As for `O=C(O)CCOc1ccc(N(CCCl)CCCl)cc1`, the T/C % in series [1] (MST treated vs saline controls, single i.p. dose at LD10 on Day 1, p < 0.001) is 211* %. Moreover, in series [1] (median survival time, BALB/c scid mice, i.p. P388, single i.p. dose at LD10 on Day 1), the “MST ± SD” value worked out at 19 days. Moreover, the Cures in series [1] (mice alive for 90 days after tumor inoculation, single i.p. dose at LD10 on Day 1) is given as 0/6. The “OS % on Day-70” value in series [2] (percentage of survivors) is recorded as 40%. The “TI % at Day-35” value in series [2] (tumor inhibition) came to 17%. In addition, the “PFS % on Day-70” value in series [2] (tumor progression free survivors) was 0%. The LD10 in series [3] was 15 mg/kg.
